These are literature values, as cited in patent US6440963B1, “Use of selective COX-2 inhibitors for the treatment of urinary incontinence” (Recordati S.A., Chemical and Pharmaceutical Company, priority 2001, dated 2002).

By UniProt entry, the sequences of proteins in these tests, tags left out. Residues count along the entry.
UniProt P23219, 24-599: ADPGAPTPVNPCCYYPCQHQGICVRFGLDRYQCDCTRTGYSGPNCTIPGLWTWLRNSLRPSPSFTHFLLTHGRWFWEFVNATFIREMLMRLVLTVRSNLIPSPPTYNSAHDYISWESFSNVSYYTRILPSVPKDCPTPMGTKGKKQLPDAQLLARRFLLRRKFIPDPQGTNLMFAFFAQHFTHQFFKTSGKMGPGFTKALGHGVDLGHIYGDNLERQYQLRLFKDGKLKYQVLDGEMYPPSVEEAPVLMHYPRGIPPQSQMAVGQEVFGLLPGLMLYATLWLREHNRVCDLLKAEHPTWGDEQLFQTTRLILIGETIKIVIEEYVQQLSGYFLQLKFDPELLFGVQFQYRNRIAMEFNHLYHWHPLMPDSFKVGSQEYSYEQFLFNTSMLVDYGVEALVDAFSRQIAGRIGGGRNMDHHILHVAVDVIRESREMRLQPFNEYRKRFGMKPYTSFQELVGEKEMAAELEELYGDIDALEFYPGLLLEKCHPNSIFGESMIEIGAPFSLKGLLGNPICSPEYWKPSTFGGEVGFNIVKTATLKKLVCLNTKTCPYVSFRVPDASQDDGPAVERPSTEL

The target in this data set is T1, human COX-1 (Homo sapiens, UniProt P23219).
T1 construct: expressed in transfected cells; host or cells: CHO cells (stably transfected)
As to conditions: CHO cells; cited from earlier work.

Broadly, the IC50 is the concentration at which inhibition is half-maximal. For the molecule `CS(=O)(=O)c1ccc(C2=C(c3ccccc3)C(=O)OC2)cc1` [Compound C], the half-inhibitory concentration (IC50) is above 15 µM.
